# Sampled rows, rich in hits. Any-hit rate of the full collection: about 0.53%.
# CCT chaperon mod – modulators of cytosolic chaperonin (CCT/TRiC) activity. purified chaperonin ATPase assay, HTRF ADP detection, 30 min. 360,000 tested, 0.3% active. activity change, % (concentration not given with the values), hits read low; in the data active = activity change below about -30%
#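 First, chaperonin was dispensed at 40 nM or 20 nM final depending on batch activity. Next, compounds were pinned at 76 uM and ATP added at 10 uM. After 30 min at 37 °C, ADP detection reagents ran 30 min at ambient temperature.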
# Rango release inh – inhibition of RanGTP-driven Rango-importin beta dissociation; Potency, µM (titrated, usually from 46.1 µM); 340,000 tested, 0.071% active; Biochemical FRET Rango-importin beta, RanGTP-induced dissociation; note: nearly all actives have a fitted effect of over 45% in size
#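 Recombinant Rango FRET biosensor (EYFP–snurportin 1 IBB–cerulean CFP10) at 0.1 uM premixed with 0.25 uM importin beta in PBS, 1 mM DTT, 0.02% Tween-20, 0.1% BSA. Compound added 5 min; RanGTP-RCC1 (0.6 uM Ran, 2 mM GTP, 0.2 uM RCC1) then triggers release, read at 45 min.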
# MmCpn inh – M. maripaludis TRiC chaperonin inhibition; purified Mm-Cpn ATPase, ADP Transcreener TR-FRET; Potency, µM (doses to about 76.9 µM), hits mostly inhibitors; 330,000 tested, 0.031% active; active = well fitted inhibition curve with a large enough effect; inconclusive = small, poorly fitted or top-dose-only effect; note: nearly all actives have a fitted effect of over 80% in size
#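 Compound-treated chaperonin, 25 nM final, turns over 10 uM ATP at 37°C for 30 min following a 10 min preincubation; ADP generated competes with ADP-d2 for Eu-cryptate antibody, lowering FRET.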
# Giardia kill – kills Giardia lamblia; Giardia lamblia trophozoite viability; activity change, % at 7.66 µM, hits read low; 340,000 tested, 0.15% active; in the data active = activity change below about -80%; inconclusive = between about -30% and that limit;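 note: parasites exposed to compound for two days anaerobically before the ATP read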
#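 Anaerobic 48 hrs incubation at 37 deg C of 100 trophozoites/well with test compounds; ATPLite 1-Step luminescence, 15-30 min RT, reports cellular ATP as viability.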
# Rango-impB inh – prevents formation of the Rango-importin beta complex | Q14974 | Rango CFP/YFP FRET sensor + importin beta, 45 min | Potency, µM (titrated, usually from 92.2 µM) | 340,000 tested, 0.031% active; note: nearly all actives have a fitted effect of over 15% in size
#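 FRET biosensor Rango (snurportin 1 IBB between N-terminal EYFP and C-terminal Cerulean), 50 nM in PBS/1 mM DTT/0.02% Tween-20/0.1% BSA, preincubated 5 min RT with compound; 0.125 microM importin beta added, 45 min RT, CFP/YFP FRET ratio read.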
# Numbers stand for hits; - = inactive; ? = inconclusive; . = no result. Unless noted, calls come from the whole dose curve.
SMILES,CCT chaperon mod,Rango release inh,MmCpn inh,Giardia kill,Rango-impB inh
Cc1c(C(=O)N2CCOCC2)oc2ccc(S(=O)(=O)N3CCCC3)cc12,-,-,35µM,-,-
O=C(Nc1ccccc1)c1ccc(-n2nncc2-c2ccccc2)cc1,.,.,.,-,.
CC(=O)c1sc(-c2ccc(Cl)cc2)cc1N,-,-,-,-,?
COC(=O)c1sc(-c2ccc(Cl)cc2)cc1N,-40,-,-,-,-
CCCCC(CC)CN=C(N)NC(N)=NCCCCCCN=C(N)NC(N)=NCC(CC)CCCC (configuration not stated),-,?,?,-,58µM
O=C(COC(=O)C(O)c1ccccc1)c1ccc2c(c1)OCCO2 (configuration not stated),-39,-,-,-,-
O=C(COC(=O)c1ccc(Cl)nc1)c1ccc2c(c1)OCCO2,-,-,-,-,-
O=C(C[n+]1ccc(/C=C/c2ccccc2)cc1)c1ccc2c(c1)OCCO2,-66,?,-,-,?
Cc1cc[n+](CC(=O)c2ccc3c(c2)OCCO3)cc1,-,-,-,-,-
CCN(CC(=O)Nc1ccc(NC(C)=O)cc1)CC(=O)Nc1cccc(Cl)c1,-71,-,-,-,?
NC(=O)CSc1ccc2nnc(-c3ccncc3)n2n1,.,.,.,-,.
CCC(=O)N1c2ccccc2[C@@H](N(C(C)=O)c2ccccc2)C[C@H]1C,-79,-,-,-,-
C(=N\n1cnnc1)/c1cccc(OCCOc2ccccc2)c1,-84,-,-,-,-
CNCCN(C)c1nc(-c2cccs2)nc2ccccc12,.,.,.,-,.
COc1ccc(/C(N)=N/O)cc1O,-30,-,-,-,-
COc1ccc(/C=N/N=C/c2ccc(OC)c(O)c2)cc1O,-,-,-,-,-
COc1ccc2c(c1OC)C(=O)N1c3ccccc3C(=O)N(Cc3ccco3)C21 (configuration not stated),.,.,.,-,.
Cc1[nH]c2ccc(C(=O)NC3CCC(C)CC3)cc2c1C (configuration not stated),-62,-,-,-,-
Cc1ccc2cccc(SCC(=O)NCc3ccco3)c2n1,-,-,-,-,-
Cc1ccc2cccc(SCC(=O)Nc3ccc(F)cc3)c2n1,-74,-,-,-,-
Cc1ccc(S(=O)(=O)N2CCN(c3nc(-c4cccs4)nc4cccnc34)CC2)cc1,.,.,.,-,.
CC1CCN(c2ccc(-c3cccs3)nn2)CC1,-,-,-,-94,-
CC(C)C1OC2(C)OC(=N)C1(C#N)C(C#N)(C#N)C2c1ccccc1 (configuration not stated),-,?,-,-,?
CCC1OC2(C)OC(=N)C1(C#N)C(C#N)(C#N)C2c1ccccc1 (configuration not stated),-,8.2µM,-,-,?
O=C(Nc1ccc2c(c1)OCO2)N1CCN(Cc2ccco2)CC1,-,-,-,?,-
SMILES,CCT chaperon mod,Rango release inh,MmCpn inh,Giardia kill,Rango-impB inh
CCCNC(=O)N1CCN(Cc2ccco2)CC1,-63,-,-,-,-
COc1cc(OC)cc(C(=O)N(Cc2ccco2)Cc2cccs2)c1,.,.,.,-,.
Cc1ccc(NC(=S)Nc2cccc(-c3n[nH]c(=S)o3)c2)cc1,-,-,50µM,-,-
NC(=S)Nc1cccc(-c2n[nH]c(=S)o2)c1,-,-,?,-,-
Cc1ccc(S(=O)(=O)NC(=O)NN2CC3CCCC3C2)cc1 (configuration not stated),-44,-,-,-,-
O=C(Nc1nc2c(Cl)cccc2s1)c1ccc(Br)o1,-,-,?,-,-
O=C(Nc1nc2c(F)cccc2s1)c1ccc([N+](=O)[O-])o1,-,-,-,-97,-
O=C(Nc1nc2ccc(F)cc2s1)c1ccc([N+](=O)[O-])o1,-,.,.,.,.
O=C(Nc1nc2c(Cl)cccc2s1)c1ccc([N+](=O)[O-])o1,-,-,-,-101,-
O=S(=O)(c1ccccc1Br)N1CCN(c2nc(-c3ccccc3)nc3ccccc23)CC1,.,.,.,-,.
Oc1ccc(CNc2ccc(C(F)(F)F)cc2Cl)c2cccnc12,.,.,-,.,.
Oc1cc(Nc2ccc(N3CCCCC3)cc2)cc2cccnc12,.,.,-,.,.
Cc1cc(C)n2nc(-c3ccc(Cl)cc3)cc2n1,-,-,-,-,-
Cc1nc2cc(-c3ccc(Cl)cc3)nn2c(NCCN(C)C)c1C,-,-,-,-96,-

# High-throughput results as filed in PubChem.
